# scFv variants of Ab-14 (light chain) against a SARS-CoV-2 spike peptide

Values reported by Li et al. 2023, doi:10.1038/s41467-023-39022-2 (FLAb copy).

Antigen: PDVDLGDISGINAS, a 14-residue peptide of the SARS-CoV-2 spike HR2 region.

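The starting antibody came from a phage panning campaign against this peptide. Designed CDR sequences, proposed from the first random library and measured here. Several design methods are mixed in this list. The scFvs were displayed on barcoded MATa yeast, the peptide on MATalpha yeast. The frequency of each diploid, read from paired DNA barcodes, reflects how well the two displayed proteins bind. Each replicate has its own calibration line, from reference interactions of the BCL2 family. Mating was done six times.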

Each scFv is VH, three GGGGS repeats, VL, as in the parent Ab-14, and differs from it in the CDRs of the light chain only.
VH: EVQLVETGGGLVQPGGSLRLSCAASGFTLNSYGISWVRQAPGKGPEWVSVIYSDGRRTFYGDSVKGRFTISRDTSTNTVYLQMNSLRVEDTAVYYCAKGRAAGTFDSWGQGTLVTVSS
VL: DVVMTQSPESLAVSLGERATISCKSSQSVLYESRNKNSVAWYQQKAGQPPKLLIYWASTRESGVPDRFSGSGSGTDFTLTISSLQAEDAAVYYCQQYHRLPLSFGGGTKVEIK

Positions count from residue 1 of the parent VL; S25L puts L in place of S.
This list holds designs with at most six substitutions.
Values are log10 of the apparent Kd in nM; lower means stronger binding.
Averages over replicates are reported, and they cover detected replicates only.
Where no diploid with the target was found in any replicate, the entry reads "no signal": below detection, most likely a poor binder, though not proof of it.
Background: pairings of all light chain designs with three empty control strains gave a value in 4% of cases (median 2.64, 5th percentile 1.59). Values in that range, when seen in few replicates, are hard to tell from nonspecific mating.
Where one sequence has several entries in the source, the replicates are pooled.
In the paper, a design with two or fewer of six values counts as a poor binder.
A sequence measured in both rounds can read differently, since the two assays cover different ranges.
Of ten entries with the parent sequence, four were seen in most replicates (averages 0.34 to 2.37), three in one and three in none, so single entries are noisy.

| changes | mean log10 Kd (nM) | detected |
|---|---|---|
| S25L+S26E+V29W+W56N+T59Q+E61M | 0.41 | 6/6 |
| K24N+S25F+V29W+W56G+A57G+S58N | -0.19 | 6/6 |
| S28Y+L30V+W56D | 0.83 | 6/6 |
| S25F+R34S+K36C+E61F+Y97S+S103D | no signal | 0/6 |
| S25L+S26Q+Y31M+W56N | -0.15 | 6/6 |
| S25V+V29E+W56N+T59Q+S62Q | 0.22 | 6/6 |
| S25L+S26D+Q27D+Y31Q+W56D | -0.38 | 6/6 |
| S25L+Q27A+Y31P+W56N | -0.13 | 6/6 |
| S26K+N35D | 0.90 | 6/6 |
| S25Q+V29Y+Y31C+W56D | 0.53 | 6/6 |
| S25L+S28L+W56N | -0.25 | 6/6 |
| Q27Y | 2.72 | 3/6 |
| Y31A+W56A+Q95K+H98P | 0.82 | 6/6 |
| S25V+Q27M+N35V+W56E+T59Q+S103I | 0.68 | 6/6 |
| S25V+Y31F+W56D | 0.17 | 6/6 |
| S25Q+L30P+R34A+W56D | -0.08 | 6/6 |
| S25L+S26P+S28E+W56G | -0.50 | 6/6 |
| S25Y+Q27F+V29Y+Y31N+E32G+W56E | 0.45 | 6/6 |
| S25L+L30M+S38N+W56S | -0.13 | 6/6 |
| S38Q+Q96T | no signal | 0/6 |
| V29D+Y31G+Q95G | 2.43 | 1/6 |
| S25I+E32Y+N35R+W56Q | 1.62 | 6/6 |
| L30G+Y31K+N35W+K36E | 1.89 | 2/6 |
| S25L+V29E+W56N+E61L+Q96D | -0.29 | 6/6 |
| S25C+N35L+W56N+Q96V+L102C | no signal | 0/6 |
| S26Y+Y31K+R34L+K36A+W56D+S103V | -0.15 | 6/6 |
| S25F+W56G+E61M+S62A+R99E | 0.51 | 6/6 |
| S25F+S33D+K36S+W56N | 0.22 | 6/6 |
| S26L+Q27W+R34V+W56H+S62D | 0.57 | 6/6 |
| S25L+N35W+W56G | 0.06 | 6/6 |
| V29W+W56G+S62Y | -0.17 | 6/6 |
| S25L+S26K+V29W+W56N | 0.15 | 6/6 |
| Y31V+R34V+K36G+N37T | no signal | 0/6 |
| S25L+S33W+K36D+W56N+E61M | 0.29 | 6/6 |
| Y31S | 1.71 | 6/6 |
| S25F+W56M | 0.86 | 8/12 |
| Q27K | 2.86 | 3/6 |
| S25L+S26W+V29T+S58P+L102V | no signal | 0/6 |
| N37E+S103G | no signal | 0/6 |
| W56Y | 2.16 | 6/6 |
| S26L+V29W+L30D+W56H+S62Q | -0.03 | 6/6 |
| S26K+S33T+W56E+T59I | -0.08 | 6/6 |
| S25F+L102F | 0.72 | 6/6 |
| V29D+K36G+S38N+W56N+E61M+S62D | 1.48 | 6/6 |
| S25Q+Q27D+Y31G+W56D | 0.20 | 6/6 |
| K24H+S25F+N35T+W56N | 0.05 | 6/6 |
| S25L+S26V+W56D+T59Q | -0.32 | 6/6 |
| S25L+S26R+L30E+E32G+W56S | 0.34 | 6/6 |
| S25V+V29Q+K36M+W56N+S62M+S103Y | 0.21 | 6/6 |
| S26G | 2.88 | 3/6 |
| E32P+W56K+H98G+R99K | 2.02 | 3/6 |
| Q27C+V29Y+K36T+W56E | 0.30 | 6/6 |
| S25F+N35M+W56N+S58V+S62T+S103W | 0.78 | 6/6 |
| W56Q+A57D | 1.38 | 6/6 |
| S58D+S62D+R99H | 0.95 | 6/6 |
| S25F+S28N+E32H+N35T+W56N+A57R | 0.55 | 6/6 |
| S25F+N35L+K36S+S38R+W56N | 0.55 | 6/6 |
| Y31G+N37T | no signal | 0/6 |
| K36L | 1.32 | 27/30 |
| Q27G+V29F+K36F+W56G | 0.10 | 6/6 |
| Q27I+V29Y+R34S+W56A | 0.55 | 6/6 |
| S26M+S28G+E32Q+W56G | 0.69 | 6/6 |

A selection of 7 entries from above:

changes	mean log10 Kd (nM)	detected
S26G	2.88	3/6
S25V+Y31F+W56D	0.17	6/6
S25L+S26R+L30E+E32G+W56S	0.34	6/6
Q27C+V29Y+K36T+W56E	0.30	6/6
K24H+S25F+N35T+W56N	0.05	6/6
S26K+S33T+W56E+T59I	-0.08	6/6
E32P+W56K+H98G+R99K	2.02	3/6